Legend:
Mu-type opioid receptor = Mu-type opioid receptor (Homo sapiens, UniProt P35372); experiment: Displacement of [3H]diprenorphine from human cloned mu receptor by cell based assay
Homo sapiens = species: Homo sapiens; experiment: Ratio of Ki for human cloned mu opioid receptor to Ki for human cloned kappa opioid receptor

By UniProt entry, the sequences of proteins in these tests, tags left out.
UniProt P35372, whole entry: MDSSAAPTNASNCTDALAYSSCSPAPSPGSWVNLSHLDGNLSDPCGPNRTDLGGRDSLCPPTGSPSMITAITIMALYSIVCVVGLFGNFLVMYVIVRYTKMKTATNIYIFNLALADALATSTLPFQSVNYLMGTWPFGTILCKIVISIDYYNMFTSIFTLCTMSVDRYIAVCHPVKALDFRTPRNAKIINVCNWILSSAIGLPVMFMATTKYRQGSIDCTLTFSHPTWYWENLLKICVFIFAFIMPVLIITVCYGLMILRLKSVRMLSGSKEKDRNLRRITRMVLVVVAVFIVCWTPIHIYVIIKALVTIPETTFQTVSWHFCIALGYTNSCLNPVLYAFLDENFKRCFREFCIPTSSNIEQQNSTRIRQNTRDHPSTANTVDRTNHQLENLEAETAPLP

O=C1N[C@H](Cc2c[nH]c3ccccc23)C(=O)N[C@@H](Cc2ccc(O)cc2)C(=O)N2CCC[C@@H]2C(=O)N[C@H]1Cc1ccccc1
Ki (Mu-type opioid receptor): 670 nM
Ratio Ki (Homo sapiens): 3

Source: ChEMBL document CHEMBL1136971, “Nascent structure-activity relationship study of a diastereomeric series of kappa opioid receptor antagonists derived from CJ-15,208” (Bioorg Med Chem Lett, 2009)
